Reference: ChEMBL document CHEMBL1914329, “2D MI-DRAGON: a new predictor for protein-ligands interactions and theoretic-experimental studies of US FDA drug-target network, oxoisoaporphine inhibitors for MAO-A and human parasite proteins” (Eur J Med Chem, 2011)

Species: Homo sapiens
Assay: Selectivity index, ratio of IC50 for human recombinant MAO-B to IC50 for human recombinant MAO-A

## COc1cc2c3c(nccc3c1)-c1ccccc1C2=O
  Ratio IC50: > 120000
